Test results: PMC5779714, “Metallochaperone UreG serves as a new target for design of urease inhibitor: A novel strategy for development of antimicrobials” (PLoS Biology, 2018)

Sequences of proteins named here, by UniProt entry; tags and fusion partners are left off. A change or cut given only in a name is not applied to a line headed by its entry.
UniProt Q09066: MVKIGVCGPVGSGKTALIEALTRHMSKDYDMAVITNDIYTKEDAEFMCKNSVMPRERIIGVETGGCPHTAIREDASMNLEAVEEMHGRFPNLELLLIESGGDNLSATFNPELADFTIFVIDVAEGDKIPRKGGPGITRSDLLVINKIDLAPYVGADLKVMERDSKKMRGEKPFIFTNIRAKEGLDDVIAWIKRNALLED

Target: UreG (Helicobacter pylori, UniProt Q09066)
Settings: read-out: dissociation constant (Kd) of BiNTA binding to UreG; Ryan–Weber fit of UV-vis titration

O=C([O-])CN(CC(=O)[O-])CC(=O)[O-].[Bi+3] [BiNTA, Bi nitrilotriacetic acid]
Kd: 1100 nM
